Reference: PMC3404744 (Molecular Pharmaceutics, 2011)

Target: T1, UGT1A9 (Homo sapiens, UniProt O60656)
T1 sequence (O60656 26-530): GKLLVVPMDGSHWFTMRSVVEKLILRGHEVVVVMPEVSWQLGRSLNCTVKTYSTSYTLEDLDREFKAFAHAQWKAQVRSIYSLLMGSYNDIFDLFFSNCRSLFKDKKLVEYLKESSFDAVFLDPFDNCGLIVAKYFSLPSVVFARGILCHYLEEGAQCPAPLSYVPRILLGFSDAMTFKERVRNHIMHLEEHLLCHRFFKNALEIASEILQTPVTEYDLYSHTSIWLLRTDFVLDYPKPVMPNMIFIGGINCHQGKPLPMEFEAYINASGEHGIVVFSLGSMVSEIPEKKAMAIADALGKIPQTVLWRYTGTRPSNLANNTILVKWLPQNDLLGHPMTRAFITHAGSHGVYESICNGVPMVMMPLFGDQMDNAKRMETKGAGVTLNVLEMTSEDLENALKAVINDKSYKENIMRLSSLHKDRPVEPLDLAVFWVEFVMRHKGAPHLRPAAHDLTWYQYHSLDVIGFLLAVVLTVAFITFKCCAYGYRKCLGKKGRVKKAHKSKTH
Experiment: Glucuronidation kinetics with recombinant human UGT1A9
Format: in vitro ADME

CCc1c2c(nc3ccc(O)cc13)-c1cc3c(c(=O)n1C2)COC(=O)[C@]3(O)CC [SN-38, 7-ethyl-10-hydroxycamptothecin]
Glucuronidation activity of recombinant UGT1A9 (10 μM): 10 ± 0.8 pmol/min/mg protein | Activity of recombinant UGT1A9 at lower concentrations (0.625-5 μM): no measurable activity
